In publication PMC10307035, “Antiviral activity of singlet oxygen-photogenerating perylene compounds against SARS-CoV-2: Interaction with the viral envelope and photodynamic virion inactivation” (Virus Research, 2023):

System: CaCo-2 cells
Assay: Cellular stress marker expression by RT-qPCR in CaCo-2 cells
Assay type: cell-based, human
Conditions: CaCo-2 cells, 5, 24 and 48 h
Protocol: RT-qPCR was performed to evaluate changes in the gene expression of cellular stress markers. […] The cells were simultaneously treated with 2 mM KBrO3 (Penta, Czech Republic), 100 nM THA (thapsigargin; Sigma-Aldrich, Missouri, USA), and 10 nM TCDD (Cambridge Isotope Laboratories, Massachusetts, USA) as model cellular stress inducers. Previous publications report the primer sequences and numbers of the Universal Probe Library (UPL; Roche Life Sciences, Germany) used for detection of ATF3, CDKN1A (p21), CYP1A1, DDIT3, HMOX1, HSPA1B (HSP70), and HSPA5 mRNAs ([Procházková et al., 2018]; [Šimečková et al., 2020]). The TXNRD1 mRNA (NM_003330.2) level was detected using the forward primer, […]; reverse primer, […]; and UPL probe #81. TaqMan™ Gene Expression Assays (Thermo Fisher Scientific, Waltham, MA, USA) were used to determine the levels of FGF21 (Hs00173927_m1), GADD45A (Hs00169255_m1), GDF15 (Hs00171132_m1), and SRXN1 (Hs00607800_m1). The amplification was run in a 10-µL reaction mixture containing 1 µL of sample, using Kapa Probe Fast One-Step (Kapa Biosystems Pty, Cape Town, South Africa) on a LightCycler® 480 System (Roche Diagnostics, Czech Republic) using the previously published sequence ([Procházková et al., 2018]). […]

## [K+].[O-][Br+2]([O-])[O-] [KBrO3, reference compound]
  expression of HMOX1, SRXN1, TXNRD1 (oxidative stress): highly stimulating effect
  expression of HSPA5, DDIT3, HSPA1B (HSP70), CDKN1A (p21), GADD45A: increased
